One test has as its target Melanocortin receptor 3 (Homo sapiens, UniProt P41968). Nature of the test: In vitro cAMP accumulation in HEK cells transfected with human Melanocortin 3 receptor (hMC3R). In kind it is functional, cell-based, HEK293.
Test [1] deals with Melanocyte-stimulating hormone receptor (Homo sapiens, UniProt Q01726). Nature of the test: In vitro cAMP accumulation in HEK cells transfected with human Melanocortin 1 receptor (hMC1R). In kind it is functional, cell-based, HEK293.

By UniProt entry, the sequences of proteins in these tests, tags left out. Where a name states a change or a piece, a line headed by the entry shows the natural chain unless it says otherwise.
UniProt P41968: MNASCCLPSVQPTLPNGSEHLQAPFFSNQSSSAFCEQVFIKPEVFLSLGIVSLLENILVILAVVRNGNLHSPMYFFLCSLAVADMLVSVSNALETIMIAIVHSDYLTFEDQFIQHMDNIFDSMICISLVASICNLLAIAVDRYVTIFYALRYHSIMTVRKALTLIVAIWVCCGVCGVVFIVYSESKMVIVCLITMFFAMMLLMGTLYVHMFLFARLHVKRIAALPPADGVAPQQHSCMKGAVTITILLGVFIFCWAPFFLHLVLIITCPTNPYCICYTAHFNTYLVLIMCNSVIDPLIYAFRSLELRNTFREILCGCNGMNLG
UniProt Q01726: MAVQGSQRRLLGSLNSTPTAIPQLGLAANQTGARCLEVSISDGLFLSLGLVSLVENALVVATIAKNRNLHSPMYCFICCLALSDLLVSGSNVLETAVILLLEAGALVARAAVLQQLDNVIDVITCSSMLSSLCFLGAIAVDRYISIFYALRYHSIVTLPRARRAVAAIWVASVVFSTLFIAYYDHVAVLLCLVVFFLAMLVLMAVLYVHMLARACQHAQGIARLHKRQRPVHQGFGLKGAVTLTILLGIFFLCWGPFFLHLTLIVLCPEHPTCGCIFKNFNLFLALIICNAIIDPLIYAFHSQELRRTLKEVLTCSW

On to `O=C(N[C@H](Cc1ccc(Cl)cc1)C(=O)N1CCC(Cn2cncn2)(C2CCCCC2)CC1)[C@H]1Cc2ccccc2CN1`, for which the EC50 (at Melanocortin receptor 3; in test [1]) was 1400 nM throughout.

The values are drawn from ChEMBL document CHEMBL1145880, “Aryl piperazine melanocortin MC4 receptor agonists” (Bioorg Med Chem Lett, 2003).
